Data on 3 compounds can be found in publication PMC11017395 (2024).

Like-named read-outs stand apart in the source and are kept apart here.

In general, IC50 refers to the concentration at which inhibition is half-maximal.

In experiment [1] the test system is P. berghei (Pb)-infected HepG2 cell. The note with it: read-out: PbHepG2 IC50; liver stage; cited from earlier work.
In experiment [2] the test system is P. berghei. The note with it: P. berghei mouse model, oral 50 mg·kg^–1 once daily for 4 days; cited from earlier work.
The test system of experiment [3] is P. berghei. The note with it: in vivo, po.
Experiment [4] deals with P. berghei (Pb)-infected HepG2 cell. Put plainly: microbe, parasite or virus in culture. The note with it: Plasmodium berghei, HepG2, read-out: liver-stage PbHepG2 IC50.

For `FC(F)(F)c1noc(-c2ccc(CCN3CCC(Nc4nc5ccccc5[nH]4)CC3)cc2)n1` [Compound 1], the IC50 in experiment [1] is 0.49 µM. In addition, in experiment [2], the “in vivo activity / reduction in parasitaemia” value is given as 99% and the mouse survival is listed as 14 days.

Turning to `Cc1ccc2[nH]c(NC3CCN(CCc4ccc(-c5noc(C(F)(F)F)n5)cc4)CC3)nc2n1` [Compound 10], in experiment [3], the “MSD (mean survival days)” value is recorded as 6 days and the “activity (%), reduction in parasitemia” value is given as 52%.

As to `COc1cc(NC(C)CCCN)c2ncccc2c1` (stereo not drawn) [primaquine, reference compound], the IC50 in experiment [4] was found to be 6 µM.
